# Experimental data: patent publication US20250179194A1, “COMPOSITIONS AND METHODS FOR IMMUNOTHERAPY TARGETING FLT3, PD-1, AND/OR PD-L1” (Cytoimmune Therapeutics, Inc., priority 2018, published 2025)
# System: surface FLT3 expression in MOLM-13, U937, THP-1, MV4-11, and EOL-1 AML cell lines
# Assay: Surface FLT3 expression in AML cell lines after FLT3 inhibitor treatment
# Type: cell-based, human
# Details: 10 μM, 48 hours
smiles,measurement,value
"CC(C)(C)c1cc(NC(=O)Nc2ccc(-c3cn4c(n3)sc3cc(OCCN5CCOCC5)ccc34)cc2)no1 [Quizartinib (AC220), Quizaritinib]",FLT3 surface expression in AML cell lines,upregulated
